Experiment: Appearance and solubility of surfactants and of 1:1 molar blends with cationic surfactant
Assay type: physicochemical
Conditions: cationic surfactant alone, ambient temperature
Protocol: The surfactant blends tested are prepared at a 1:1 molar ratio without any pH adjustment. Dilutions are made using deionized water to the desired actives level. Actives amounts are wt. % unless indicated otherwise. Appearances are reported at ambient temperature for samples prepared within the last 24 h.

Compound: CCCCCCCCCCCCCCCC[N+](C)(C)C.[Cl-] [Ammonyx ® Cetac 30 (cetrimonium CI), cetrimonium CI]
- Appearance, 0.1% (0.1% actives): clear liquid
- Appearance, 1.0% (1.0% actives): clear liquid

Reference: patent US10287530B2, “Surfactants based on monounsaturated fatty alcohol derivatives” (priority 2013, dated 2019)
